The values below come from US20050004038A1, “Bivalent inhibitors of Glutathione-S-Transferases” (priority 2003, published 2005).

Sequences of proteins named here, by UniProt entry; tags and fusion partners are left off. Residues count along the entry.
UniProt P09211, 2-210 limits assumed: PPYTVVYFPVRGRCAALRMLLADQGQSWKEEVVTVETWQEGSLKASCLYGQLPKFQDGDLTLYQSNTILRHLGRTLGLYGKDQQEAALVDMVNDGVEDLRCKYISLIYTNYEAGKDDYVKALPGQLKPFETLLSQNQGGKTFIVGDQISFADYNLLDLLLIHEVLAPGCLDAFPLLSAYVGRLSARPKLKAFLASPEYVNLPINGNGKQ
UniProt P08263, whole entry: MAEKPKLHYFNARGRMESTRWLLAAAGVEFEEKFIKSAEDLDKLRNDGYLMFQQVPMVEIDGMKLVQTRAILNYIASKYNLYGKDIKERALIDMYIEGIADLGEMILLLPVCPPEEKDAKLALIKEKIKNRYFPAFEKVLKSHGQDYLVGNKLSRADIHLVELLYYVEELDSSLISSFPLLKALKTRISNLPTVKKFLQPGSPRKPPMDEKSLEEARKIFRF

Each structure is given as a SMILES string.

Assay [1] concerns the target human glutathione S-transferase P1-1 (GSTP1-1) (Homo sapiens, UniProt P09211). The assay is described as follows: CDNB assay of GST activity and inhibition, GST P1-1. Particulars: read-out: IC50 GSTP1-1, first value of the cell GSTP1-1/GSTA1-1, 20 nM GST.
The target of assay [2] is human glutathione S-transferase A1-1 (GSTA1-1) (Homo sapiens, UniProt P08263). Nature of the assay: CDNB assay of GST activity and inhibition, GST A1-1. The following applies: read-out: IC50 GSTA1-1, second value of the cell GSTP1-1/GSTA1-1, 20 nM GST.

Consider `C=C(CC)C(=O)c1ccc(OCC(=O)NCCCC(=O)NCc2cccc(C(N)=O)c2)c(Cl)c1Cl`, for which the figures for the IC50 in assay [1] and in assay [2] were 12.5 µM and 13.6 µM, respectively.
